# ChEMBL document CHEMBL3399947, “Structure activity relationship of selective GABA uptake inhibitors” (Bioorg Med Chem, 2015)
# Target: Sodium- and chloride-dependent GABA transporter 1 (Mus musculus, UniProt P31648)
# Experiment: Inhibition of mouse mGAT1 expressed in HEK293 cells assessed as inhibition of [3H]GABA uptake after 3 mins incubation by TopCount microplate scintillation counting analysis
# Format: cell-based
structure (smiles),measurement,value
COc1ccc(C(OCCN2CCC[C@H](C(=O)O)C2)(c2ccc(OC)cc2)c2ccc(OC)cc2)cc1,IC50,> 30 µM
